Target: Saponaria officinalis saporin-L1 (leaf RIP, N-terminal sequence […], SEQ ID NO:2) (Saponaria officinalis, UniProt Q2QEH4)

`Nc1ncnc2c(CN3C[C@H](COP(=O)(O)OCCCO)[C@@H](OP(=O)(O)OCCCO)C3)c[nH]c12` [s3(9-DA)s3] was tested, and the Ki (Values are Ki with no slow onset observed, A-10 RNA as substrate, pH 7.7) was 0.69 ± 0.1 µM and the “reduced binding affinity to saporin-L1 on removal of the 3′-Gs3 moiety” value (monomer s3(9-DA)s3 vs dimer s3(9-DA)Gs3) was 10 fold.
